Each molecule was assayed against T1, Tripartite terminase subunit 3 (Human betaherpesvirus 5) (UniProt P16732). Details: dose 20.0 µM.
T1 sequence (whole entry): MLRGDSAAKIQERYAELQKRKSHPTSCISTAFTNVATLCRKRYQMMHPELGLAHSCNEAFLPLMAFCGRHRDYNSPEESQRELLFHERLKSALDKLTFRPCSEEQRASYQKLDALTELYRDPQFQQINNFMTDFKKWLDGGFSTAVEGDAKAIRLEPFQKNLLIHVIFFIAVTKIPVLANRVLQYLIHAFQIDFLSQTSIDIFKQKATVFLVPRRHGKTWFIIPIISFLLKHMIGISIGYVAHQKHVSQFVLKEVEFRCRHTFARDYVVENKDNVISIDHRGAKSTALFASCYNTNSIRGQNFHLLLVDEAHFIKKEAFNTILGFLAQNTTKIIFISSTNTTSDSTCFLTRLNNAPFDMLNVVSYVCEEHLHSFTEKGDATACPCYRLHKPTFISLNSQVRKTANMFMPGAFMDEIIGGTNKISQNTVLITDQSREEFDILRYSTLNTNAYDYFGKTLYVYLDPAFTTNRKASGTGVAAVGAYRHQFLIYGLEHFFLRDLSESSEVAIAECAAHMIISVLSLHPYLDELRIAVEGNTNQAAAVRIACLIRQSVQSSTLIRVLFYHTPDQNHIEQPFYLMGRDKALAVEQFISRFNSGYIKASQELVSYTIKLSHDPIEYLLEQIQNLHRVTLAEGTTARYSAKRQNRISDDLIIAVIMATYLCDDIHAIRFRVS

Compound | ΔTm [°C]
COc1ccc(-c2ccc(Sc3cc(=O)n(O)c(=O)[nH]3)cc2)cc1 | 0.55
Cn1c(Sc2cccc(Cl)c2)cc(=O)n(O)c1=O | 29
Cn1c(Sc2ccc(Br)cc2)cc(=O)n(O)c1=O | 33

What follows are molecules tested against T1, Tripartite terminase subunit 3 (Human betaherpesvirus 5) (assay: Inhibition of human cytomegalovirus pUL89 endonuclease activity using 60 bp dsDNA substrate at 20 uM incubated for 30 mins by ELISA-based biochemical assay relative to control). Details: not given.

Compound | inhibition [%]
Cn1c(Sc2ccc(C(F)(F)F)cc2)cc(=O)n(O)c1=O | 33
Cn1c(Sc2cccc3ccccc23)cc(=O)n(O)c1=O | 68
O=c1cc(Sc2cccc(-c3ccc(Cl)cc3)c2)[nH]c(=O)n1O | 30

The remaining lines, values ahead:

inhibition [%] | Compound
46 | COc1cccc(Sc2cc(=O)n(O)c(=O)n2C)c1
60 | Cn1c(Sc2ccc(Cl)cc2)cc(=O)n(O)c1=O
35 | Cn1c(Sc2cccc(C(F)(F)F)c2)cc(=O)n(O)c1=O
67 | CCc1ccccc1Sc1cc(=O)n(O)c(=O)n1C

Source: ChEMBL document CHEMBL4823278, “Metal binding 6-arylthio-3-hydroxypyrimidine-2,4-diones inhibited human cytomegalovirus by targeting the pUL89 endonuclease of the terminase complex” (Eur J Med Chem, 2021)
